# Experimental data reported in patent US20230288433A1, “DETECTION OF PHOSPHOINOSITIDES IN BLOOD CELLS AS A BIOMARKER FOR ALPHA SYNUCLEIN ASSOCIATED PATHOLOGIES AND A METHOD OF TREATMENT OF PARKINSON'S DISEASE AND THE RELATED NEURODEGENERATIONS” (YISSUM RESEARCH DEVELOPMENT COMPANY OF THE HEBREW …, priority 2021, published 2023).
# System: muscarinic receptors
# Conditions: primary cortical neurons from α-Syn−/− mouse brains, 5 DIV, 1 mM; control neurons treated with DMSO solvent set at 100%
compound,measurement,value
C[N+](C)(C)CCOC(N)=O [carbachol],"PI4,5P2 signal",25%
